According to BindingDB's records for doi:10.1021/jm300416h (Taiho Pharmaceutical, 2012):

Assay: Inhibition of human dUTPase-mediated cell proliferation in HeLa S3 cells assessed as compound concentration required to reduce 50% of 1 uM of FdUrd T/C after 24 hrs by crystal violet staining

`CC(C)(CC/C=C/Cn1ccc(=O)[nH]c1=O)NS(=O)(=O)c1cccc(OCC2CC2)c1` showed an EC50 of 71 nM.
